PubChem BioAssay AID651580 (Sanford-Burnham Center for Chemical Genomics, 2012)
Only a part is listed here, and it is no random draw. The source made the active and inactive calls.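 The calls were made as follows: active = mean inhibition across four replicates of at least 40 percent at the single tested concentration; inactive = the rest.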

assay: HIF-2a reporter inhibitor retest, confirmation, luminescence, 786-0 RCC cells (AID 651580); details: HIF-2a luciferase reporter luminescence, overnight, at 18.8 µM, stronger effect = higher value

| Compound | inhibition |
| --- | --- |
| CCCCCCCCCCCCCCCC1C[N+](C)(C)CCOP(C)(=O)O1 (stereo unspecified) | inactive: 33.3% |
